The entries are a selection whose mix differs from that of the whole data set. The source made the active and inactive calls.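 Rule for the calls: active = mean inhibition over triplicate runs exceeds the cutoff derived for the earlier primary screen (cut at about 25% in these data); inactive = the rest.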

By UniProt entry, the sequences of proteins in these tests, tags left out.
UniProt P68402, whole entry: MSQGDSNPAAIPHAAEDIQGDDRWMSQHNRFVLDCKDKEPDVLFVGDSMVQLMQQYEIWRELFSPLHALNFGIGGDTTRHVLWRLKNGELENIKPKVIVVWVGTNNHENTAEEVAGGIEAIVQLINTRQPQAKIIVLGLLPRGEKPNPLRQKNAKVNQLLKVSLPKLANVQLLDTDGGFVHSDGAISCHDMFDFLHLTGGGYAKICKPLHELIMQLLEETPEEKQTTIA

In this experiment the target is Platelet-activating factor acetylhydrolase IB subunit alpha2 (Homo sapiens) (UniProt P68402). The experiment can be described thus: inhibition of human PAFAH1B2 catalytic subunit – biochemical, fluorescence polarization, FP-rhodamine probe, triplicate, confirmation (AID 493034).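 Note: 0% = enzyme with DMSO and 100% = wells lacking PAFAH1B2 protein; inhibitors lower polarization by leaving the probe unbound.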 As to conditions: recombinant PAFAH1B2, FP-rhodamine probe fluorescence polarization; at 3.39 µM; stronger effect = higher value. For orientation: Polarisation of emitted light reports the rotation of a fluorescent probe.
In the case of `CC(C)c1ccc(OP(C)(=O)Nc2ccc(SC(F)(F)F)cc2)cc1` (configuration not stated), the inhibition is active: 42.5%. Then `CC(C)(C)c1ccc(OP(C)(=O)Nc2ccc(SC(F)(F)F)cc2)cc1` (configuration not stated), with active: 31.7%.

As a reminder, the inhibition is the drop in the measured response relative to a control, in per cent.
